# Measured values published in patent US12297244B2, “Systems and methods for inhibiting γ-secretase production of amyloid-β peptides” (Rensselaer Polytechnic Institute, priority 2020, dated 2025).
# Protein sequences, listed by entry. Tags and fused reporters are not part of them. Residues count along the entry.
# UniProt P05067, whole entry: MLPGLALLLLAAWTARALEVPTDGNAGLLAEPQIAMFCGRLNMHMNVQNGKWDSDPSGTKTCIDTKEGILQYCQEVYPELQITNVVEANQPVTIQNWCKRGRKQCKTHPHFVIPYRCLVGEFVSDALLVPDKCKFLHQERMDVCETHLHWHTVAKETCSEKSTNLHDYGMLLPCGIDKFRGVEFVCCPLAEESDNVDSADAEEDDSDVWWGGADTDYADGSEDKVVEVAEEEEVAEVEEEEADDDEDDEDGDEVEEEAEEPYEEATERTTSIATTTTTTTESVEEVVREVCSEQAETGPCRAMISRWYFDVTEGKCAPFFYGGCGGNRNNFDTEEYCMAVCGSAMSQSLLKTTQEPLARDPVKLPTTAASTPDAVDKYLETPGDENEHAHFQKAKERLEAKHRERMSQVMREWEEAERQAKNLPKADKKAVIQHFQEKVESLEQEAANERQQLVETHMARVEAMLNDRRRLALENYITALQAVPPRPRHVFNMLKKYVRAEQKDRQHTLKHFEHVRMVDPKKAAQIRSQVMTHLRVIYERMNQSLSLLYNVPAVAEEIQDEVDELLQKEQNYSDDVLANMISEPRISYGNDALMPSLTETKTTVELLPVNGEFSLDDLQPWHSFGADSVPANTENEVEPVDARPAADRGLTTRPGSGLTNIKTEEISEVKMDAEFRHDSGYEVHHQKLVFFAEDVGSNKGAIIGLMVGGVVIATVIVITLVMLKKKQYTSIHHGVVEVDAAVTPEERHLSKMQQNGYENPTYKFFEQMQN
# UniProt P05067, 699-726 limits assumed: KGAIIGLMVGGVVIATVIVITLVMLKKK
# How the values were obtained:
# [1] = molecular target: APPTM (Homo sapiens, UniProt P05067); experiment: NMR titration and mass spectroscopy binding to APPTM; settings: NMR titration, mass spectroscopy
# Excerpt: Compound N1 inhibits A production in AlphaLISA-secretase assay (see FIG. 8A). Further, N1 binds APPTM at the C-terminal region, non-covalently in NMR titration (see FIG. 8B).
# [2] = molecular target: γ-secretase in the HeLa membrane (Homo sapiens, UniProt P05067); experiment: AlphaLISA γ-secretase assay with biotinylated Sb4 (APP sequence) substrate; settings: read-out: IC50 in AlphaLISA γ-secretase assay; FIG. 7
# Procedure: Referring now to FIG. 1, and without wishing to be bound by theory, γ-secretase cleaves within the transmembrane domain of the amyloid precursor protein (APPTM) to release Aβ, which aggregates to form neurotoxic oligomers and fibrils. […] Formula III decreased the production of Aβ40 and Aβ42 by γ-secretase in a dose dependent manner (FIG. 2). An IC50 value of 1.9 μM was obtained for the inhibition of Aβ42 production and 3.9 μM for the inhibition of Aβ40 production. […] Similar inhibition effects were also observed in a gel-based assay using MBP-APPTM fusion protein as the substrate and the presenilin homolog (PSH) MAMRE50 as an enzyme.
compound,measurement,setting,value
CC(C)[C@H](NC(=O)c1cc(C(C)(C)C)cc(C(C)(C)C)c1)C(=O)N[C@@H](CSC(c1ccccc1)(c1ccccc1)c1ccccc1)C(=O)O,binding to APPTM,[1],bind non-covalently to C-terminal region of APPTM
same,IC50,[2],100 nM
